Patent US20090226395A1, “Pharmaceutical compositions of beta-lapachone and beta-lapachone analogs with improved tumor targeting potential” (ArQule, Inc., priority 2004, published 2009)

Assay: Tumor and plasma levels of free and total β-lapachone in HT29 tumor bearing Ncr NU/NU mice
Assay type: in vivo
Details: iv administration of the conjugate, FIGS. 3, 5A and B
Procedure: Chromatographic analysis of plasma samples to determine plasma β-Lapachone levels is conducted employing a Zorbax SB C8 HPLC column (2.1×30 mm, 5μ particle size). The chromatographic system employs a CTC PAL Leap autoinjector (Leap Technologies, Carrboro, N.C.) with an Agilent (Agilent Technologies, Palo Alto, Calif.) 1100 HPLC system interfaced to a Micromass Quattro Ultima (Waters Corporation, Milford, Mass., USA) triple quadrapole mass spectrometer is employed to analyze samples. Chromatographic separations were conducted employing a gradient formed from mobile phase A (0.1% formic acid (FA) in water) and mobile phase B (0.1% FA in acetonitrile). The gradient program employed for the chromatographic separation is described in Table 3. The injection volume employed is 10 μL. The mass spectrometer is operated using ESI (electrospray ionization) positive in MRM (multiple reaction monitoring) mode. Mass transitions are monitored, respectively, for β-lapachone-D6 (Internal Standard, IS)=249>159, β-lapachone=243>159, and β-lapachone-ketal=317>243. Argon is used as the collision gas and Nitrogen is used as the desolvation gas. The collision cell gas pressure is 1.7×10^−3 mbar. The cone gas flow is 108 L/h and the desolvation gas flow is 537 L/h. The source temperature is set to 110° C. and the desolvation temperature is 400° C. […]

5-(acetyloxy)-2,2-dimethyl-3,4-dihydro-2H-benzo[h]chromen-6-yl glycinate γ-poly-L-glutamate [Sample B]
persistence of therapeutic levels of β-lapachone in both tumors and plasma: about 24 hours
